In assay [1] the test system is HBV rcDNA in HepDE19 cells. In words: HepDE19 cell culture system, rcDNA quantitation using bDNA assay, MacSynergy II. The format is cell-based, human hepatoma cell line. Here is the method: In vitro combination studies were conducted using the method of Prichard and Shipman (Prichard M N, and Shipman C Jr., Antiviral Research, 1990, 14 (4-5), 181-205; and Prichard M N, et. al., MacSynergy II). HepDE19 cell culture system is a HepG2 (human hepatocarcinoma) derived cell line that supports HBV DNA replication and cccDNA formation in a tetracycline (Tet)-regulated manner and produces HBV rcDNA and a detectable reporter molecule dependent on the production and maintenance of cccDNA (Guo et al 2007. J. Virol 81:12472-12484). […] Following a 7 day-incubation of cells with compound combinations, the level of rcDNA present in the inhibitor-treated wells was measured using a Quantigene 2.0 bDNA assay kit (Affymetrix, Santa Clara, Calif.) with HBV specific custom probe set and manufacturers instructions. […] The RLU data from the single compound treated cells were analyzed using XL-Fit module in Microsoft Excel to determine EC50 values using a 4-parameter curve fitting algorithm. Concurrently, the effect of compounds on cell viability was assessed using replicate plates, plated at a density of 5,000 cells/well and incubated for 4 days, to determine the ATP content as a measure of cell viability using the cell-titer glo reagent (CTG; Promega Corporation, Madison, Wis.) as per manufacturer's instructions. […]

For assay [2], the system named is D type HBV in primary human hepatocytes. In words: microbe, parasite or virus in culture. The conditions noted are these: for AVERAGE % INHIBITION: COMPOUND 22 0.00 μM; for EC50: read-out: Inhibitor A EC50. The format is cell-based. Here is the method:
(§1) The mouse liver perfusion was applied to isolate PHHs. The isolated hepatocytes were further purified by Percoll. The cells were resuspended with culture media and seeded into the 96-well plates (6×10^4 cell/well) or 48-well plates (1.2×10^5 cell/well). The PHHs were infected with a D type HBV one day post seeding (day 1).
(§2) On day 2, the test compounds were diluted and added into the cell culture plates. The culture media containing the compounds were refreshed every other day. The cell culture supernatants were collected on day 8 for the HBV DNA and antigen determinations.
(§3) The compounds were tested at 7 concentrations, 3-fold dilution, in triplicate.
(§4) Two compounds were tested at 5×5 matrix, in triplicate plates.
DNA in the culture supernatants harvested on days 8 were isolated with QIAamp 96 DNA Blood Kit (Qiagen-51161). For each sample, 100 μl of the culture supernatants was used to extract DNA. The DNA was eluted with 100 μl, 150 μl or 180 μl of AE. HBV DNA in the culture supernatants was quantified by qPCR. The combination effect was analyzed by the MacSynergy software. The primers are described below.

Assay [3] relates to D type HBV in primary human hepatocytes (HBsAg). The format is cell-based. To be noted: for AVERAGE % INHIBITION: COMPOUND 22 0.00 μM. The protocol: as §1, §2, §3, §4
(§5) HBsAg/HBeAg in the culture supernatants harvested on days 8 were measured by the HBsAg/HBeAg ELISA kit (Autobio) according to the manual. The samples were diluted with PBS to get the signal in the range of the standard curve. The inhibition rates were calculated with the formula below. The combination effect was analyzed by the MacSynergy software.
% Inh. HBsAg=[1-HBsAg quantity of sample/HBV quantity of DMSO control]×100.

The subject of assay [4] is D type HBV in primary human hepatocytes (HBeAg). The format is cell-based. To be noted: for AVERAGE % INHIBITION: COMPOUND 22 0.00 μM. Here is the method: as §1, §2, §3, §4, §5
% Inh. HBeAg=[1-HBeAg quantity of sample/HBV quantity of DMSO control]×100.

The mark [5] stands for this setting: PHH, determined in an earlier separate experiment.
[6] abbreviates: Hepatitis B virus, Hepatocyte, read-out: AVERAGE % […] DNA.

Where “and” joins values, the source holds several entries; their conditions need not be identical. Equal values may be shown once. Read-outs that look alike come from different tables or passages of the source.

The term EC50 denotes the concentration needed to bring the measured effect to its halfway point.

On to `C=C1[C@H](CO)[C@@H](O)C[C@@H]1n1cnc2c(=O)[nH]c(N)nc21` [Entecavir], for which the “AVERAGE % INHIBITION (rcDNA)” value in assay [1] (4 replicates, ETV 0.500 nM, SIRNA-NP ng/mL by row: r8 25, r9 8.333, r10 2.778, r11 0.926, r12 0.309, r13 0) is on record as 10.24%. Moreover, in assay [1] (expected from additive interaction, ETV 0.5 nM, SIRNA-NP ng/mL by row: r30 25, r31 8.333, r32 2.778, r33 0.926, r34 0.309, r35 0), the “ADDITIVE INHIBITION” value was found to be 10.24%.
Take “IFNα2a: pegylated interferon alpha 2a [reference compound]”: the “Inhibitor A EC50” value was 2.154 IU/mL in assay [2] (HBV DNA endpoint, PHH, determined in an earlier separate experiment (Table 18d)); 2.154 IU/mL in assay [2] (HBV DNA, determined in an earlier separate experiment); 13.8 IU/mL in assay [3] (HBsAg endpoint, PHH, determined in an earlier separate experiment (Table 18d)); 13.8 IU/mL in assay [3] (HBsAg, determined in an earlier separate experiment); 10.24 IU/mL in assay [4]. Moreover, the “AVERAGE % INHIBITION” value is on record as −18.56% in assay [2] (IFNα2a 0.12 IU/mL); 6.59% in assay [2] (IFNα2a 0.37 IU/mL); 28.08% in assay [2] (IFNα2a 1.11 IU/mL); 52.39% in assay [2] (IFNα2a 3.33 IU/mL); 59% in assay [2] (IFNα2a 10.00 IU/mL); −1.67% in assay [3] (IFNα2a 0.12 IU/mL). The “AVERAGE % INHIBITION” value is 4.6% in assay [3] (IFNα2a 0.37 IU/mL); 8.8% in assay [3] (IFNα2a 1.11 IU/mL); 10.2% in assay [3] (IFNα2a 3.33 IU/mL); 20.1% in assay [3] (IFNα2a 10.00 IU/mL); 7.42% in assay [4] (IFNα2a 0.12 IU/mL); 1.78% in assay [4] (IFNα2a 0.37 IU/mL). Besides, the “AVERAGE % INHIBITION” value in assay [4] (IFNα2a 1.11 IU/mL) amounted to 15.27%; in assay [4] (IFNα2a 3.33 IU/mL), 17.16%; in assay [4] (IFNα2a 10.00 IU/mL), 30.13%. For the same molecule, the “AVERAGE % INHIBITION HBV DNA” value was 22.81% and 38.46% in assay [2] (IFNα2a 0.37 IU/mL alone); 32.66% and 43.03% in assay [2] (IFNα2a 1.11 IU/mL alone); 46.92% and 59.88% in assay [2] (IFNα2a 3.33 IU/mL alone); 58.66% and 61.87% in assay [2] (IFNα2a 10.00 IU/mL alone). Moreover, in assay [2] (setting [5]), the “Inhibitor A EC50 HBV DNA” value stood at 2.154 IU/mL. The “AVERAGE % INHIBITION HBsAg” value in assay [3] (IFNα2a 0.12 IU/mL alone) is −4.08% and 1.56%; in assay [3] (IFNα2a 0.37 IU/mL alone), 2.74% and 6.9%; in assay [3] (IFNα2a 1.11 IU/mL alone), 10.57% and 14.91%; in assay [3] (IFNα2a 3.33 IU/mL alone), 18.32% and 12.8%; in assay [3] (IFNα2a 10.00 IU/mL alone) it was 22.77% and 24.94%. Also, the “Inhibitor A EC50 HBsAg” value in assay [3] (setting [5]) came to 13.8 IU/mL. Further, the “Inhibitor A EC50 HBeAg” value in assay [4] came out at 10.24 IU/mL. In addition, the “AVERAGE % INHIBITION HBeAg” value in assay [4] (IFNα2a 0.37 IU/mL alone) was −12.17% and −2.24%; in assay [4] (IFNα2a 3.33 IU/mL alone) it was 6.47% and 14.38%; in assay [4] (IFNα2a 10.00 IU/mL alone) it was 17.32% and 32.8%.
With `CC(C)OC(=O)OCOP(=O)(CO[C@H](C)Cn1cnc2c(N)ncnc21)OCOC(=O)OC(C)C.O=C(O)/C=C/C(=O)O` [TDF, tenofovir disoproxil fumarate, reference compound], the “AVERAGE % INHIBITION HBV DNA” value in assay [2] (3 replicates, Compound 24 0.00 nM, TDF nM: 10.00, 3.33, 1.11, 0.37, 0.12) came to 2.49%. In addition, in assay [2] (setting [6]), the inhibition at 0.00012 µM is -19.3%, the inhibition at 0.00037 µM is -4.64%, the inhibition at 0.00333 µM came out at 24.9% and the inhibition at 0.01 µM is 22%. For the same molecule, in assay [2] (setting [6]), the inhibition at […] stood at 24.4%. Further, the EC50 in assay [2] (Hepatitis B virus, Hepatocyte) is 5.16 nM. The EC50 in assay [2] was found to be 5.62 nM.

The values above are taken from patent US20220265817A1, “THERAPEUTIC COMPOSITIONS AND METHODS FOR TREATING HEPATITIS B” (priority 2017, published 2022).
